# Results: patent publication US11813340B2, “PSMA targeted radiohalogenated urea-polyaminocarboxylates for cancer radiotherapy” (The Johns Hopkins University, priority 2018, dated 2023)
# Like-named read-outs stand apart in the source and are kept apart here.
# Key:
# [1] = system: PSMA + PC3-PIP and PSMA-PC3-flu flank xenografts; conditions: 4 H; no blocker; inhibitors reported in WO2017070482; cited from earlier work
# [2] = system: PSMA + PC3-PIP and PSMA-PC3-flu flank xenografts; test: Biodistribution of At-211 labeled PSMA inhibitors with and without cold blocking agent (Tables 6-8); assay type: in vivo, athymic mice; conditions: 4 H; no blocker
# Protocol: 27, 2017, at 1 hour, 2-4 hours, and 21-24 hours, respectively.
# Final compounds were purified by HPLC.
# [3] = system: PSMA+PC3-PIP and PSMA-PC3-flu flank xenografts
smiles,measurement,setting,value
"O=C(O)CC[C@H](NC(=O)NC(CCCCNC(=O)c1ccc([211At])cc1)C(=O)O)C(=O)O (stereo partly drawn) [YC-I-27, (2S)-2-(3-(1-Carboxy-5-(4-211At-Astatobenzamido)Pentyl)Ureido)-Pentanedioic Acid]","Biodistribution, PIP tumor",[1],18.3 ± 2.9 % injected dose/g
same,"Biodistribution, Stomach",[1],13.3 ± 3.1 % injected dose/g
O=C([O-])CN1CCN(CC(=O)[O-])CCN(CC(=O)NCCCCC(=O)N(CCCC[C@H](NC(=O)N[C@@H](CCC(=O)O)C(=O)O)C(=O)O)Cc2ccc([211At])cc2)CCN(CC(=O)[O-])CC1.[Lu+3] [[^211At]VK-02-90-Lu],"Biodistribution, PIP tumor",[2],17.1 ± 5.2 % injected dose/g
O=C([O-])CN1CCN(CC(=O)[O-])CCN(CC(=O)NCCCCC(=O)N(CCCC[C@H](NC(=O)N[C@@H](CCC(=O)O)C(=O)O)C(=O)O)Cc2ccc([125I])cc2)CCN(CC(=O)[O-])CC1.[Lu+3] [[^125I]VK-02-90-Lu],"Biodistribution, PIP tumor","[3]; 4-hr, Blocker YC-I-27 5 nmole",14.3 ± 5.0 % injected dose/g
same,"Biodistribution, PIP tumor","[3]; 24-hour, Blocker VK-02-90 1.0 nmole",18.3 ± 3.7 % injected dose/g
same,"Biodistribution, PIP tumor","[3]; 24-hour, Blocker VK-02-90 5.0 nmole",10.6 ± 3.2 % injected dose/g
same,"Biodistribution, PIP tumor","[3]; 24-hour, Blocker YC-I-27 1.0 nmole",12.6 ± 3.1 % injected dose/g
